Patent US20250051444A1 (SUZHOU ZELGEN BIOPHARMACEUTICALS, published 2025)

B1: L15-06 (antibody, V domains shown)
VH: EVQLLESGGGLVQPGGSLRLSCAASGFTFSSYYMSWVRQAPGKGLEWVADISVSGSYTNYADSVKGRFTISRDNSKNTLYLQMNSLRAEDTAVYYCARIGSYRSFFSTDDGDSLDYWGQGTLVTVSS
VL: not shown
notes: From phage library screening; tested as a 'monoclonal antibody molecule'; also called L15-L06; anti-LRRC15 antibody L15-06
B2: L15-08 (antibody, V domains shown)
VH: QVQLVESGGGLVKPGGSLRLSCAASGFTFSDYYMSWIRQAPGKGLEWVSDISVSSSYTNYADSVKGRFTISRDNAKNSLYLQMNSLRAEDTAVYYCARLGGYRSFFSTDDGDSLDYWGQGTLVTVSS
VL: not shown
notes: From phage library screening; also called anti-LRRC15 antibody L15-08
B3: L15-07 (antibody, V domains shown)
VH: QVQLVQSGAEVKKPGSSVKVSCKASGGTFSTYAISWVRQAPGQGLEWMGGITPMFGTPNYAQKFQGRVTITADESTSTAYMELSSLRSEDTAVYYCARGDWYDYHFDYWGQGTLVTVSS
VL: QSALTQPASVSGSPGQSITISCTGTSSDVGGYNYVSWYQQHPGKAPKLMIYEVSNRPSGVSNRFSGSKSGNTASLTISGLQAEDEADYYCQSYANRDNFVVFGGGTKLTVL
notes: From phage library screening; also called anti-LRRC15 antibody L15-07

Each binder was assayed against T1, mouse LRRC15 (mouse, UniProt Q80X72 22-579) (assay: FACS on CHO cells expressing mouse LRRC15).
T1 construct: whole, on cells
Description: Furthermore, the binding ability of the LRRC15 antibodies of the present invention to CHO cells expressing LRRC15 was tested. Therein, CHO cells expressing LRRC15 were prepared by the following method: the full-length sequence gene fragments of human, mouse and monkey LRRC15 were obtained by whole gene synthesis, and then these fragments were inserted into the backbone of the stable expression vector to obtain the expression plasmid vectors. These three plasmids were transfected into CHO cells, and monoclonal cell lines were screened under the pressure of puromycin, which are the flow cytometry cell lines used in this example.
CHO cells expressing LRRC15 were washed with FACS buffer (0.5% BSA in PBS) and resuspended at 2E6 cells/ml with the gradient diluted LRRC15 antibodies. The resuspension was incubated on ice for 30 minutes, then washed twice with FACS buffer and incubated with the second antibody on ice for 30 minutes. After washing the resuspended cells with FACS buffer again, the cells were detected by flow cytometry. Based on the measured mean fluorescence intensity, the half maximal binding concentration (EC50) of each antibody was determined.
B1: binds. B2: binds. B3: binds.
